Test: SEC-HPLC purity of ADC molecules stored at 2 to 8° C.
Assay type: physicochemical
Experimental: The denaturation temperature (I'm value), aggregation temperature (Tagg value) and hydration kinetic diameter of ADC molecules were measured by UNcle multifunctional protein stability analysis system. Wherein, the Tm value was based on endogenous fluorescence spectroscopy method, and was fitted and calculated according to BCM algorithm, the Tagg value was measured by static light scattering (SLS) technology, and the hydration dynamics diameter was measured by dynamic light scattering (DLS) technology. • SEC purity detection: The purity of ADC molecules was analyzed by high performance liquid chromatography (HPLC). • Liquid chromatograph: Shimadzu LC-2030C Plus • chromatographic column: TSKgel G3000SWXL, 7.8×300 mm, 5 μm, TOSOH • mobile phase: 61 mmol/L Na2HPO4, 39 mmol/L NaH2PO4, 200 mmol/L NaCl, pH6.8 • flow rate: 1.0 ml/min • Detection wavelength: UV 220 nm • column temperature: 30° C. • Sample chamber temperature: 10° C. • Injection volume: 20 μg • Isocratic running time: 30 min
Quantitative analysis of the results was performed using peak area normalization method. If automatic integration failed due to reasons such as baseline drift, retention time variation, peak shape change or other reasons, integration parameters should be adjusted or the spectrum should be manually integrated. The main peak (MP) was the monomer peak, the peak with a retention time before the main peak was the aggregate peak (HMW), and the peak with a retention time after the main peak was the low molecular weight impurity peak (LMW).
In addition, 1CP-152-MMAE and CD27H10-MMAE were placed at 2 to 8° C. for different time (0 days, 3 days, 5 days) to investigate the change in purity of the two molecules.

B1: 1CP-152-MMAE: humanized antibody 1CP-152 linked to vc-MMAE, target DAR 4 (conjugate)
heavy: EVQLVESGGGLVQPGRSLRLSCTTSGLTFTHYHMSWVRQAPGKGLEWVAIIRNKAYGYTTDYSASVRGRFTISRDDSKSILYLQMNSLKTEDTAVYYCVREGGYGYDGTFAYWGQGTLVTVSSASTKGPSVFPLAPSSKSTSGGTAALGCLVKDYFPEPVTVSWNSGALTSGVHTFPAVLQSSGLYSLSSVVTVPSSSLGTQTYICNVNHKPSNTKVDKKV[left out - human IgG1 Fc]
light: DIQMTQSPSSLSASVGDRVTITCRASESVDNYGISFMNWFQQKPGQAPKLLIYAASNQGSGVPSRFSGSGSGTDFTLTISSMQPEDFATYYCQQSKEVPRTFGGGTKVEIKRTVAAPSVFIFPPSDEQLKSGTASVVCLLNNFYPREAKVQWKVDNALQSGNSQESVTEQDSKDSTYSLSSTLTLSKADYEKHKVYACEVTHQGLSSPVTKSFNRGEC
In the case of B1, the “HMW D 3” value (SEC aggregate peak, 2 to 8° C., 3 days) is reported as 1.9, the “HMW D 5” value (SEC aggregate peak, 2 to 8° C., 5 days) is reported as 1.9 and the “LMW D 5” value (SEC low molecular weight peak, 2 to 8° C., 5 days) is reported as 0.8. For the same molecule, the “decrease of purity after leaving at 2-8° C. for 5 days” value (SEC purity, D 5 vs D 0) was “did not change”.
